By UniProt entry, the sequences of proteins in these tests, tags left out.
UniProt P33535, whole entry: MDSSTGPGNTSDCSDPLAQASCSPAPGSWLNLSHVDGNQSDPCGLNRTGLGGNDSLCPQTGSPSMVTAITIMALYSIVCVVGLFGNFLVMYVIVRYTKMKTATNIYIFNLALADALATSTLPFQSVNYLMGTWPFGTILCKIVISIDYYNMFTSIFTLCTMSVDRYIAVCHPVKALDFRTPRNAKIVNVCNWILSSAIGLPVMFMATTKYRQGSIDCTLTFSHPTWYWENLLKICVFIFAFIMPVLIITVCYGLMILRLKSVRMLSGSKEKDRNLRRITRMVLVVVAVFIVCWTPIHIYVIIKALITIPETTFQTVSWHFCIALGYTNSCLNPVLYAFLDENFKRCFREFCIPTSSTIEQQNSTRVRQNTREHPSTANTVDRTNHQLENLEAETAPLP

In BindingDB's records for doi:10.1046/j.1460-9568.2003.02744.x (University of Innsbruck, 2003):

Molecular target: Mu-type opioid receptor (Rattus norvegicus, UniProt P33535)

`C[C@@H](NC(=O)[C@@H](N)Cc1ccc(O)cc1)C(=O)NCC(=O)N(C)[C@@H](Cc1ccccc1)C(=O)NCCO` [CAS_100929-53-1] gave a Ki of 1.72 nM.
